The values below are quoted from earlier work in patent US8835432B2, “Heterocyclic compounds and their uses” (Amgen Inc., priority 2012, dated 2014).

Amino acid sequences for entries named in this document (tags omitted).
UniProt P42338, whole entry, species assumed: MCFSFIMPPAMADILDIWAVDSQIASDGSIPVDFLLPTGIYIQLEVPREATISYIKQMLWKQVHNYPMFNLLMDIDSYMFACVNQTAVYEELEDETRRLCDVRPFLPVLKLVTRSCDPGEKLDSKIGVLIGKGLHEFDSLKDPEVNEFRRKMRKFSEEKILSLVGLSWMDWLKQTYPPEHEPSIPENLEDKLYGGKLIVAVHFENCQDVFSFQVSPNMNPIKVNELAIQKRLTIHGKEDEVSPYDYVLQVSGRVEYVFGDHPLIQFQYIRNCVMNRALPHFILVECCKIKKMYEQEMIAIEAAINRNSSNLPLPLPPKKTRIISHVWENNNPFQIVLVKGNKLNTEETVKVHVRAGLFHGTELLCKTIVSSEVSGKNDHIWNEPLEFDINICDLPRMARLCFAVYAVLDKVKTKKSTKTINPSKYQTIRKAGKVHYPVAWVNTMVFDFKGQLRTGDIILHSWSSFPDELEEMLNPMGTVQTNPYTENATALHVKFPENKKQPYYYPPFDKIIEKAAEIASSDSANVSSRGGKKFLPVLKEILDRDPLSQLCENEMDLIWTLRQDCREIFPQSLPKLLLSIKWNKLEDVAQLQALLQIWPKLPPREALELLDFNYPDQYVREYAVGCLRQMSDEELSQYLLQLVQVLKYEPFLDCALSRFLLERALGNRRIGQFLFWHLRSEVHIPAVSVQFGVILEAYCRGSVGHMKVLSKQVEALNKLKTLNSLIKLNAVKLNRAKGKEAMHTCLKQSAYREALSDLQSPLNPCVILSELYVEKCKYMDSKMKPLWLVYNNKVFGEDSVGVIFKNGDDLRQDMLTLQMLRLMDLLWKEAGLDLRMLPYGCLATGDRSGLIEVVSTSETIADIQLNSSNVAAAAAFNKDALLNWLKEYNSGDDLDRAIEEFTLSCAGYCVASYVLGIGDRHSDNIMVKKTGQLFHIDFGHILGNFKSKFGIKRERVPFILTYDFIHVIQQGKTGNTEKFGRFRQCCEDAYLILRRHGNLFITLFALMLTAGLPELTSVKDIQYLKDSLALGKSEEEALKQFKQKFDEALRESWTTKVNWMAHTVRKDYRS

Structures are written as SMILES.

In the data set the target is P110β (Homo sapiens, UniProt P42338). Particulars: read-out: potency on beta; cited from earlier work.

For the molecule `Cc1cc(C(C)Nc2ccccc2)c2nc(N3CCOCC3)cc(=O)n2c1` (stereo not shown) [TGX-221], the IC50 was 7 nM.
